Measured values published in PMC5430633, “Phosphorylation of the mitochondrial autophagy receptor Nix enhances its interaction with LC3 proteins” (Scientific Reports, 2017).

Experiments:
Assay type in all cases: binding, human
GFP-LC3B K51A = experiment: Co-immunoprecipitation with GFP-LC3B K51A; settings: α-GFP IP, Western blot
Protocol: (§1) Cells were scraped, centrifuged at 500 g for 5 min, and lysed in 150 µL CHAPS lysis buffer (2% CHAPS, 1% Triton X-100, 137 mM NaCl, 2 mM EDTA, 10% glycerol, and 20 mM Tris-HCl, pH 8.0) containing protease and phosphatase inhibitors. 5 µL of total lysate was kept as Input sample and 145 µL of cell lysate was incubated with 12.5 µL α-GFP (1:40, Roche)-coupled Dynabeads Protein G (purchased from Invitrogen) for 2 hrs at 4 °C. This step was followed by three washing steps using 0.02% Tween-20/PBS and immunoprecipitated proteins were eluted from Dynabeads by adding 4X LDS buffer (purchased from Invitrogen) and 10X sample reducing agent (purchased from Invitrogen) to the beads. Heating at 70 °C for 10 min will denaturized the proteins to analyze them by Western blotting.

EGFP-LC3B R11A = experiment: Co-immunoprecipitation with EGFP-LC3B R11A; settings: α-GFP IP, 24 hrs post transfection, Fig. S5a
Protocol: as §1

EGFP-LC3B R10A = experiment: Co-immunoprecipitation with EGFP-LC3B R10A; settings: α-GFP IP, 24 hrs post transfection, Fig. S5a
Protocol: as §1

For “tRFP-p62: autophagy receptor p62 expressed in cells, positive control [reference compound]”, the “co-immunoprecipitation with GFP-LC3B K51A” value (GFP-LC3B K51A) was “fails to coimmunoprecipitate”, the “co-immunoprecipitation with LC3B R11A” value (EGFP-LC3B R11A) was “weakly coimmunoprecipitates” and the “co-immunoprecipitation with LC3B R10A” value (EGFP-LC3B R10A) was “weakly coimmunoprecipitates”.
